Assay results reported in ChEMBL document CHEMBL5150064 (J Med Chem, 2022).

By UniProt entry, the sequences of proteins in these tests, tags left out.
UniProt P42336, whole entry H1047R: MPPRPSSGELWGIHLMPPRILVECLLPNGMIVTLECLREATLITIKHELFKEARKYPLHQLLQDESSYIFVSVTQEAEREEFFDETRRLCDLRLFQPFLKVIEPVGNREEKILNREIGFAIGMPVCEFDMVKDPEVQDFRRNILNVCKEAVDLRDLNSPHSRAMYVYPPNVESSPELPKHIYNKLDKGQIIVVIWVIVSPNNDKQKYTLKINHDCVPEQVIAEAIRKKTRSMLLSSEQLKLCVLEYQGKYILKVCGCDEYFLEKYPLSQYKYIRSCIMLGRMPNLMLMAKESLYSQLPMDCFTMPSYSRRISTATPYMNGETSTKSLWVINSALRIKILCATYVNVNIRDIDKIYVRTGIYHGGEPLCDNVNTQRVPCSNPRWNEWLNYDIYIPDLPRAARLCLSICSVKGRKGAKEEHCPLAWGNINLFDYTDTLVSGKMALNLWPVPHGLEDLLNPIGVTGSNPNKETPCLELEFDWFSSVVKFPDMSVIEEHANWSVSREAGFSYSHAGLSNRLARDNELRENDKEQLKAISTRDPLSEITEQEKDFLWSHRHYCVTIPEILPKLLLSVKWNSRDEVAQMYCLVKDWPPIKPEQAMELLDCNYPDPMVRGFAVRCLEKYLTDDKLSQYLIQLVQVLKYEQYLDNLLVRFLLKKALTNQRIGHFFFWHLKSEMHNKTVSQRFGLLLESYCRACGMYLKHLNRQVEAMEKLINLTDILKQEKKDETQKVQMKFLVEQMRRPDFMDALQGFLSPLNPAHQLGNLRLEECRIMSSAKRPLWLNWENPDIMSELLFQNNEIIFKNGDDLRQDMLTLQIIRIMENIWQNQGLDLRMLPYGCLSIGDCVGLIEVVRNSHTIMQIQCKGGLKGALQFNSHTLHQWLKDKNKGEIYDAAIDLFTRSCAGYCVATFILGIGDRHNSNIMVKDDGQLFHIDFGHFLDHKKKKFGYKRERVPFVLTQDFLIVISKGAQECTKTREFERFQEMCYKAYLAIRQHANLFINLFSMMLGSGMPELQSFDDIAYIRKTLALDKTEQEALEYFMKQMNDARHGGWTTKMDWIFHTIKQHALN

Biological target: Phosphatidylinositol 4,5-bisphosphate 3-kinase catalytic subunit alpha isoform (Homo sapiens, UniProt P42336, H1047R)

`Cc1nc(-c2cn3c(n2)-c2ccc(-c4cnn(C(C)(C)C(N)=O)c4)cc2OCC3)n(C(C)C)n1` [TASELISIB] was tested, and the EC50 was 24 nM.
